Reference: paper PMC11392818

Columns and labels:
[1] = biological target: T1, Rluc8-H2A (histone H2A, eBRET2 biosensor component), P0C0S8; assay: eBRET2; conditions: chain shown with the change; transfection into cGAS knockout HCT116 cells; parent: est. 1.0; read off a plot
[2] = biological target: T1, Rluc8-H2A (histone H2A, eBRET2 …); assay: eBRET2; conditions: chain shown with the change; transfection into cGAS knockout HCT116 cells; parent: est. 1.0; read off a plot; remark: listed apart in the source

Row | Binder | response (relative eBRET2 signal (510nm/395nm)) [1] | response (relative eBRET2 signal (510nm/395nm)) [2]
1 | GFP2-cGAS (cyclic GMP-AMP synthase, eBRET2 biosensor component), Q8N884 S37D (protein) MQPWHGKAMQRASEAGATAPKASARNARGAPMDPTEDPAAPEAALPKAGKFGPARKSGSRQKKSAPDTQERPPVRATGARAKKAPQRAQDTQPSDATSAPGAEGLEPPAAREPALSRAGSCRQRGARCSTKPRPPPGPWDVPSPGLPVSAPILVRRDAAPGASKLRAVLEKLKLSRDDISTAAGMVKGVVDHLLLRLKCDSAFRGVGLLNTGSYYEHVKISAPNEFDVMFKLEVPRIQLEEYSNTRAYYFVKFKRNPKENPLSQFLEGEILSASKMLSKFRKIIKEEINDIKDTDVIMKRKRGGSPAVTLLISEKISVDITLALESKSSWPASTQEGLRIQNWLSAKVRKQLRLKPFYLVPKHAKEGNGFQEETWRLSFSHIEKEILNNHGKSKTCCENKEEKCCRKDCLKLMKYLLEQLKERFKDKKHLDKFSSYHVKTAFFHVCTQNPQDSQWDRKDLGLCFDNCVTYFLQCLRTEKLENYFIPEFNLFSSNLIDKRSKEFLTKQIEYERNNEFPVFDEF | 1.1 | 1.1
2 | GFP2-cGAS (cyclic GMP-AMP synthase, eBRET2 biosensor component), Q8N884 S213D (protein) MQPWHGKAMQRASEAGATAPKASARNARGAPMDPTESPAAPEAALPKAGKFGPARKSGSRQKKSAPDTQERPPVRATGARAKKAPQRAQDTQPSDATSAPGAEGLEPPAAREPALSRAGSCRQRGARCSTKPRPPPGPWDVPSPGLPVSAPILVRRDAAPGASKLRAVLEKLKLSRDDISTAAGMVKGVVDHLLLRLKCDSAFRGVGLLNTGDYYEHVKISAPNEFDVMFKLEVPRIQLEEYSNTRAYYFVKFKRNPKENPLSQFLEGEILSASKMLSKFRKIIKEEINDIKDTDVIMKRKRGGSPAVTLLISEKISVDITLALESKSSWPASTQEGLRIQNWLSAKVRKQLRLKPFYLVPKHAKEGNGFQEETWRLSFSHIEKEILNNHGKSKTCCENKEEKCCRKDCLKLMKYLLEQLKERFKDKKHLDKFSSYHVKTAFFHVCTQNPQDSQWDRKDLGLCFDNCVTYFLQCLRTEKLENYFIPEFNLFSSNLIDKRSKEFLTKQIEYERNNEFPVFDEF | 1.1 | 
3 | GFP2-cGAS (cyclic GMP-AMP synthase, eBRET2 biosensor component), Q8N884 S221D (protein) MQPWHGKAMQRASEAGATAPKASARNARGAPMDPTESPAAPEAALPKAGKFGPARKSGSRQKKSAPDTQERPPVRATGARAKKAPQRAQDTQPSDATSAPGAEGLEPPAAREPALSRAGSCRQRGARCSTKPRPPPGPWDVPSPGLPVSAPILVRRDAAPGASKLRAVLEKLKLSRDDISTAAGMVKGVVDHLLLRLKCDSAFRGVGLLNTGSYYEHVKIDAPNEFDVMFKLEVPRIQLEEYSNTRAYYFVKFKRNPKENPLSQFLEGEILSASKMLSKFRKIIKEEINDIKDTDVIMKRKRGGSPAVTLLISEKISVDITLALESKSSWPASTQEGLRIQNWLSAKVRKQLRLKPFYLVPKHAKEGNGFQEETWRLSFSHIEKEILNNHGKSKTCCENKEEKCCRKDCLKLMKYLLEQLKERFKDKKHLDKFSSYHVKTAFFHVCTQNPQDSQWDRKDLGLCFDNCVTYFLQCLRTEKLENYFIPEFNLFSSNLIDKRSKEFLTKQIEYERNNEFPVFDEF | 1 | 
4 | GFP2-cGAS (cyclic GMP-AMP synthase, eBRET2 biosensor component), Q8N884 S37A (protein) MQPWHGKAMQRASEAGATAPKASARNARGAPMDPTEAPAAPEAALPKAGKFGPARKSGSRQKKSAPDTQERPPVRATGARAKKAPQRAQDTQPSDATSAPGAEGLEPPAAREPALSRAGSCRQRGARCSTKPRPPPGPWDVPSPGLPVSAPILVRRDAAPGASKLRAVLEKLKLSRDDISTAAGMVKGVVDHLLLRLKCDSAFRGVGLLNTGSYYEHVKISAPNEFDVMFKLEVPRIQLEEYSNTRAYYFVKFKRNPKENPLSQFLEGEILSASKMLSKFRKIIKEEINDIKDTDVIMKRKRGGSPAVTLLISEKISVDITLALESKSSWPASTQEGLRIQNWLSAKVRKQLRLKPFYLVPKHAKEGNGFQEETWRLSFSHIEKEILNNHGKSKTCCENKEEKCCRKDCLKLMKYLLEQLKERFKDKKHLDKFSSYHVKTAFFHVCTQNPQDSQWDRKDLGLCFDNCVTYFLQCLRTEKLENYFIPEFNLFSSNLIDKRSKEFLTKQIEYERNNEFPVFDEF | 0.23 | 0.28

Continued, values first:

Row | response (relative eBRET2 signal (510nm/395nm)) [1] | response (relative eBRET2 signal (510nm/395nm)) [2] | Binder
5 |  | 0.25 | GFP2-cGAS (cyclic GMP-AMP synthase, eBRET2 biosensor component), Q8N884 S305A (protein) MQPWHGKAMQRASEAGATAPKASARNARGAPMDPTESPAAPEAALPKAGKFGPARKSGSRQKKSAPDTQERPPVRATGARAKKAPQRAQDTQPSDATSAPGAEGLEPPAAREPALSRAGSCRQRGARCSTKPRPPPGPWDVPSPGLPVSAPILVRRDAAPGASKLRAVLEKLKLSRDDISTAAGMVKGVVDHLLLRLKCDSAFRGVGLLNTGSYYEHVKISAPNEFDVMFKLEVPRIQLEEYSNTRAYYFVKFKRNPKENPLSQFLEGEILSASKMLSKFRKIIKEEINDIKDTDVIMKRKRGGAPAVTLLISEKISVDITLALESKSSWPASTQEGLRIQNWLSAKVRKQLRLKPFYLVPKHAKEGNGFQEETWRLSFSHIEKEILNNHGKSKTCCENKEEKCCRKDCLKLMKYLLEQLKERFKDKKHLDKFSSYHVKTAFFHVCTQNPQDSQWDRKDLGLCFDNCVTYFLQCLRTEKLENYFIPEFNLFSSNLIDKRSKEFLTKQIEYERNNEFPVFDEF
6 | 1 |  | GFP2-cGAS (cyclic GMP-AMP synthase, eBRET2 biosensor component), Q8N884 S317D (protein) MQPWHGKAMQRASEAGATAPKASARNARGAPMDPTESPAAPEAALPKAGKFGPARKSGSRQKKSAPDTQERPPVRATGARAKKAPQRAQDTQPSDATSAPGAEGLEPPAAREPALSRAGSCRQRGARCSTKPRPPPGPWDVPSPGLPVSAPILVRRDAAPGASKLRAVLEKLKLSRDDISTAAGMVKGVVDHLLLRLKCDSAFRGVGLLNTGSYYEHVKISAPNEFDVMFKLEVPRIQLEEYSNTRAYYFVKFKRNPKENPLSQFLEGEILSASKMLSKFRKIIKEEINDIKDTDVIMKRKRGGSPAVTLLISEKIDVDITLALESKSSWPASTQEGLRIQNWLSAKVRKQLRLKPFYLVPKHAKEGNGFQEETWRLSFSHIEKEILNNHGKSKTCCENKEEKCCRKDCLKLMKYLLEQLKERFKDKKHLDKFSSYHVKTAFFHVCTQNPQDSQWDRKDLGLCFDNCVTYFLQCLRTEKLENYFIPEFNLFSSNLIDKRSKEFLTKQIEYERNNEFPVFDEF
7 | 0.98 |  | GFP2-cGAS (cyclic GMP-AMP synthase, eBRET2 biosensor component), Q8N884 T447E (protein) MQPWHGKAMQRASEAGATAPKASARNARGAPMDPTESPAAPEAALPKAGKFGPARKSGSRQKKSAPDTQERPPVRATGARAKKAPQRAQDTQPSDATSAPGAEGLEPPAAREPALSRAGSCRQRGARCSTKPRPPPGPWDVPSPGLPVSAPILVRRDAAPGASKLRAVLEKLKLSRDDISTAAGMVKGVVDHLLLRLKCDSAFRGVGLLNTGSYYEHVKISAPNEFDVMFKLEVPRIQLEEYSNTRAYYFVKFKRNPKENPLSQFLEGEILSASKMLSKFRKIIKEEINDIKDTDVIMKRKRGGSPAVTLLISEKISVDITLALESKSSWPASTQEGLRIQNWLSAKVRKQLRLKPFYLVPKHAKEGNGFQEETWRLSFSHIEKEILNNHGKSKTCCENKEEKCCRKDCLKLMKYLLEQLKERFKDKKHLDKFSSYHVKTAFFHVCEQNPQDSQWDRKDLGLCFDNCVTYFLQCLRTEKLENYFIPEFNLFSSNLIDKRSKEFLTKQIEYERNNEFPVFDEF
8 |  | 0.28 | GFP2-cGAS (cyclic GMP-AMP synthase, eBRET2 biosensor component), Q8N884 S305D (protein) MQPWHGKAMQRASEAGATAPKASARNARGAPMDPTESPAAPEAALPKAGKFGPARKSGSRQKKSAPDTQERPPVRATGARAKKAPQRAQDTQPSDATSAPGAEGLEPPAAREPALSRAGSCRQRGARCSTKPRPPPGPWDVPSPGLPVSAPILVRRDAAPGASKLRAVLEKLKLSRDDISTAAGMVKGVVDHLLLRLKCDSAFRGVGLLNTGSYYEHVKISAPNEFDVMFKLEVPRIQLEEYSNTRAYYFVKFKRNPKENPLSQFLEGEILSASKMLSKFRKIIKEEINDIKDTDVIMKRKRGGDPAVTLLISEKISVDITLALESKSSWPASTQEGLRIQNWLSAKVRKQLRLKPFYLVPKHAKEGNGFQEETWRLSFSHIEKEILNNHGKSKTCCENKEEKCCRKDCLKLMKYLLEQLKERFKDKKHLDKFSSYHVKTAFFHVCTQNPQDSQWDRKDLGLCFDNCVTYFLQCLRTEKLENYFIPEFNLFSSNLIDKRSKEFLTKQIEYERNNEFPVFDEF
